Source: patent US11613525B2 (CTXT PTY LIMITED, priority 2018, dated 2023)

Protein sequences, listed by entry. Tags and fused reporters are not part of them.
UniProt Q86WV6, whole entry R71H/G230A/H232R/R293Q: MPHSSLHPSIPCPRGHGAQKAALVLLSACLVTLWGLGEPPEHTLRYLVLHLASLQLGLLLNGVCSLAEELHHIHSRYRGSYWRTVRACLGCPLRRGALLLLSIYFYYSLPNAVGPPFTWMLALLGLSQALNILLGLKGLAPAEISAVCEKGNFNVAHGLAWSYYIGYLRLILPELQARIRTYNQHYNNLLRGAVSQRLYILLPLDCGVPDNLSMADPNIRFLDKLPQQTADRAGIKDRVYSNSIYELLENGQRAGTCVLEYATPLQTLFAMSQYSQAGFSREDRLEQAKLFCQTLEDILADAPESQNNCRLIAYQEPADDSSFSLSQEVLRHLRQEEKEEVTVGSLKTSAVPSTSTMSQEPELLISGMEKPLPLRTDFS
UniProt Q86WV6, whole entry G230A/H232R/R293Q, looked up: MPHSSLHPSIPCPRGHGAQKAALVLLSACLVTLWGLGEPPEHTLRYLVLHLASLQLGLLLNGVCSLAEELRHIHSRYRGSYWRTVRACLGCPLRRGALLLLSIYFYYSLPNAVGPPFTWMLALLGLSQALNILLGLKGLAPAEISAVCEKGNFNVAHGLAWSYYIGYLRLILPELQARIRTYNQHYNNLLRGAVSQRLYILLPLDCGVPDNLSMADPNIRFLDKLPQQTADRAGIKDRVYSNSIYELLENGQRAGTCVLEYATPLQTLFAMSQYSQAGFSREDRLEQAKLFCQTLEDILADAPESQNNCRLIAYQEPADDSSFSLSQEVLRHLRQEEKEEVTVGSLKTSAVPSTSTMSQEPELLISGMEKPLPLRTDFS
UniProt Q86WV6, whole entry H232R: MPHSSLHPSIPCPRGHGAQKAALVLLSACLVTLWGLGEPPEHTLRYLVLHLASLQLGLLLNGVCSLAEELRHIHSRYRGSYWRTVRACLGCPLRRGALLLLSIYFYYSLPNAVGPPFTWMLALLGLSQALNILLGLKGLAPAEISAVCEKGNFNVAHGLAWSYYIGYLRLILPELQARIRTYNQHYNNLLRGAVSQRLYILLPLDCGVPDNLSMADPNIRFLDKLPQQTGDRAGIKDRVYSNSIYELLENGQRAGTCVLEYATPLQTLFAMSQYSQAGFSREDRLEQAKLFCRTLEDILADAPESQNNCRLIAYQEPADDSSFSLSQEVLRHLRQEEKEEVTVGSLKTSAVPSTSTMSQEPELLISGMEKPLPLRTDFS

Key:
huSTING (HAQ) = huSTING (HAQ) (Homo sapiens (Human), UniProt Q86WV6, G230A/H232R/R293Q/R71H); assay: THP-1 reporter cell line assay, THP-1 STING Lucia ISG cells; type: cell-based; settings: 24 h, top concentration 50 μM, read-out: Cellular EC50 huSTING (HAQ)
human STING (HAQ) = human STING (HAQ) (Homo sapiens, UniProt Q86WV6, G230A/H232R/R293Q); settings: read-out: SPR (HAQ) KD; 25° C.
huSTING (WT) = huSTING (WT) (Homo sapiens (Human), UniProt Q86WV6, H232R); assay: THP-1 reporter cell line assay, THP-1-Dual KI-hSTING-R232 cells; type: cell-based; settings: 24 h, top concentration 50 μM, read-out: Cellular EC50 huSTING (WT)

Structure (SMILES) | pEC50 (huSTING (HAQ)) | pKd (human STING (HAQ)) | pEC50 (huSTING (WT))
NC(=O)c1cc(F)c(OCc2c(C(=O)O)sc3cccc(Cl)c23)c(F)c1 [Example 69, 3-((4-Carbamoyl-2,6-difluorophenoxy)methyl)-4-chlorobenzo[b]thiophene-2-carboxylic acid] | 4.78 | 7.05 | 4.37
NC(=O)c1ccc(OCc2c(C(=O)O)sc3cccc(Cl)c23)cc1 [Example 8, 3-((4-Carbamoylphenoxy)methyl)-4-chlorobenzo[b]thiophene-2-carboxylic acid] | < 4.30 | 5.98 | < 4.30

pEC50, pKd: −log10 of the molar value.
